pIC50, pKi: −log10 of the molar value.
Assays:
[1] = molecular target: Sodium-dependent noradrenaline transporter (Homo sapiens, UniProt P23975); experiment: Inhibition of Norepinephrine (NA) reuptake using cloned human transporter was determined
[2] = molecular target: Norepinephrine transporter (Rattus norvegicus, UniProt Q9WTR4); experiment: Inhibition of [3H]nisoxetine binding at norepinephrine transporter was determined

By UniProt entry, the sequences of proteins in these tests, tags left out.
UniProt P23975, whole entry: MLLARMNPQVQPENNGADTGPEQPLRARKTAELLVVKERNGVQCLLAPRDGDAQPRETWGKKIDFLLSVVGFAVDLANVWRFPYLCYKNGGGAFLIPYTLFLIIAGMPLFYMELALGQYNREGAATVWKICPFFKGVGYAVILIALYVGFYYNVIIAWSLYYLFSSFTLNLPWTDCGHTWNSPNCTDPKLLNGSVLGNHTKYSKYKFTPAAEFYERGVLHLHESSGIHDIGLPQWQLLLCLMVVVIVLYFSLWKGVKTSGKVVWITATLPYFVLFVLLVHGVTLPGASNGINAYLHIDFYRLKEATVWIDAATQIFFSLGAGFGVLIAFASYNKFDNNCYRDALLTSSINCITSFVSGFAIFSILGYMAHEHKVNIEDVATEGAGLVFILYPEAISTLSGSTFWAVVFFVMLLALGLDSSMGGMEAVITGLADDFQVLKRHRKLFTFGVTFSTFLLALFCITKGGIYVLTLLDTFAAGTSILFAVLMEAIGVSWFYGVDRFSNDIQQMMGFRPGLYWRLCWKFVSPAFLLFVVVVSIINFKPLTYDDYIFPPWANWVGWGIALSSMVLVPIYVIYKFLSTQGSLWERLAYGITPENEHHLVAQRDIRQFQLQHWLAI
UniProt Q9WTR4, whole entry: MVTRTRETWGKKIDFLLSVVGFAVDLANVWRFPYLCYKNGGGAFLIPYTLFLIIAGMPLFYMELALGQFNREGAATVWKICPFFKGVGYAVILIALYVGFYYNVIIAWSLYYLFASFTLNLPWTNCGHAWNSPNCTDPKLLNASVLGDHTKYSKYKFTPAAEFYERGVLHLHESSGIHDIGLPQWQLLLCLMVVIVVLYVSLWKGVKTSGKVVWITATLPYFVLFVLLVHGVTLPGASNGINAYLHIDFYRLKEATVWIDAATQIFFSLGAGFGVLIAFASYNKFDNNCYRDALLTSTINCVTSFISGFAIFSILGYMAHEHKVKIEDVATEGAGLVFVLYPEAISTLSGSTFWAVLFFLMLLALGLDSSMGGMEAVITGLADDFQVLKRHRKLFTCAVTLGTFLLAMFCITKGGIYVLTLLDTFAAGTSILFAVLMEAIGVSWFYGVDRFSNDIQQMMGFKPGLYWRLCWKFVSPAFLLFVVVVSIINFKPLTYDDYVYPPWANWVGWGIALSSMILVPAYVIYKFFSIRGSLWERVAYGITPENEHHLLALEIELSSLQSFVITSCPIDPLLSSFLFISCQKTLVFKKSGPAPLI

Structure (SMILES): CC(NC(C)(C)C)C(=O)c1cccc(Cl)c1 (configuration not stated) [BUPROPION]
- pIC50 [1]: 5.84

Structure (SMILES): COC(=O)[C@H]1[C@@H](OC(=O)c2ccccc2)C[C@@H]2CC[C@H]1N2C [COCAINE]
- pKi [2]: 5.70
